Test [1] deals with MEF. Kind of test: Cytotoxicity against icmt-double mutant MEF cells after 5 days by MTT assay. It is filed as cell-based. Conditions: Mus musculus, 120 h. In a few lines:
(§1)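 MEFs from Icmt+/+ or Icmt–/– animals were seeded at 1000 cells/well in DMEM with 10% FBS for 24 h. Medium was then changed to DMEM with 5% FBS containing compound at various concentrations, or 0.1% DMSO. After 5 days, MTT (5 mg/mL) was added for 4 h at 37 °C. Medium was removed, formazan dissolved in DMSO, and absorbance read at 590 nm.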
(Formazan colour is commonly taken as a measure of viable cells.)

Test [2] relates to MEF. Kind of test: Cytotoxicity against icmt-positive MEF cells after 5 days by MTT assay. It is filed as functional, cell-based. Conditions: Mus musculus, 120 h. In a few lines:
as §1

Structures are written as SMILES.

In ChEMBL document CHEMBL2034867, “S-Farnesyl-Thiopropionic Acid (FTPA) Triazoles as Potent Inhibitors of Isoprenylcysteine Carboxyl Methyltransferase” (ACS Med Chem Lett, 2012) one finds IC50 data, which are given here for one compound.

The term IC50 denotes the concentration that inhibits the measured activity by half. Lower therefore signals greater potency.

As for `CC(C)=CCC/C(C)=C/CC/C(C)=C/CSc1ccccc1C(=O)O` [SALIRASIB], the IC50 was found to be 14.3 µM in the test with MEF [1] and 15.3 µM in the test with MEF [2].
